Results as given in PubChem BioAssay (NCI).
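Interpolation was linear, between the two tested concentrations surrounding the appropriate level; five concentrations were tested over 48 hours in 96-well plates. The concentration for 50% growth inhibition is given as GI50. TGI: total growth inhibition.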

What was measured:
Experiment in all cases: growth of human tumour cells (NCI), 48 h
MOLT-4 leukemia = test system: MOLT-4 leukemia
RPMI-8226 leukemia = test system: RPMI-8226 leukemia
SK-OV-3 ovarian = test system: SK-OV-3 ovarian
SN12C renal = test system: SN12C renal
CCRF-CEM leukemia = test system: CCRF-CEM leukemia
UO-31 renal = test system: UO-31 renal
MDA-MB-435 = test system: MDA-MB-435
NCI-H23 lung = test system: NCI-H23 lung
RXF 393 renal = test system: RXF 393 renal
SNB-75 CNS = test system: SNB-75 CNS
OVCAR-5 ovarian = test system: OVCAR-5 ovarian
UACC-62 melanoma = test system: UACC-62 melanoma
EKVX NSCLC = test system: EKVX NSCLC
SF-539 CNS = test system: SF-539 CNS
MDA-N = test system: MDA-N
MALME-3M melanoma = test system: MALME-3M melanoma
LOX IMVI melanoma = test system: LOX IMVI melanoma
786-0 renal = test system: 786-0 renal
PC-3 prostate = test system: PC-3 prostate
SK-MEL-5 melanoma = test system: SK-MEL-5 melanoma
SNB-19 CNS = test system: SNB-19 CNS
HCT-116 colon = test system: HCT-116 colon
A498 renal = test system: A498 renal
IGROV1 ovarian = test system: IGROV1 ovarian
HT29 colon = test system: HT29 colon
HCC-2998 colon = test system: HCC-2998 colon
BT-549 breast = test system: BT-549 breast
COLO 205 colon = test system: COLO 205 colon
OVCAR-3 ovarian = test system: OVCAR-3 ovarian
UACC-257 melanoma = test system: UACC-257 melanoma
SK-MEL-2 melanoma = test system: SK-MEL-2 melanoma
SW-620 colon = test system: SW-620 colon
NCI-H322M lung = test system: NCI-H322M lung
A549 NSCLC = test system: A549 NSCLC
NCI-H460 lung = test system: NCI-H460 lung
NCI-H226 lung = test system: NCI-H226 lung
NCI-H522 lung = test system: NCI-H522 lung
M14 melanoma = test system: M14 melanoma
HL-60(TB) leukemia = test system: HL-60(TB) leukemia
TK-10 renal = test system: TK-10 renal
CAKI-1 renal = test system: CAKI-1 renal
MDA-MB-231 breast = test system: MDA-MB-231 breast
SF-268 CNS = test system: SF-268 CNS
T-47D breast = test system: T-47D breast
U251 CNS = test system: U251 CNS
KM12 colon = test system: KM12 colon
MCF7 breast = test system: MCF7 breast
OVCAR-4 ovarian = test system: OVCAR-4 ovarian
HCT-15 colon = test system: HCT-15 colon
SR leukemia = test system: SR leukemia
SK-MEL-28 melanoma = test system: SK-MEL-28 melanoma
SF-295 CNS = test system: SF-295 CNS
HS 578T breast = test system: HS 578T breast
NCI/ADR-RES ovarian = test system: NCI/ADR-RES ovarian
OVCAR-8 ovarian = test system: OVCAR-8 ovarian
HOP-92 NSCLC = test system: HOP-92 NSCLC
ACHN renal = test system: ACHN renal
HOP-62 NSCLC = test system: HOP-62 NSCLC

## CC1=C[C@H]2O[C@@H]3C[C@H]4OC(=O)/C=C\C=C\C(C(C)O)OCC[C@@H](C)[C@H](O)C(=O)OC[C@@]2(CC1)[C@]4(C)[C@]31CO1 (stereo partly specified)
MOLT-4 leukemia
  GI50: < 1 nM
  TGI: < 1 nM
RPMI-8226 leukemia
  GI50: < 1 nM
  TGI: < 1 nM
SK-OV-3 ovarian
  GI50: < 1 nM
  TGI: 1.31 nM
SN12C renal
  GI50: < 1 nM
  TGI: 13.1 nM
CCRF-CEM leukemia
  GI50: < 1 nM
  TGI: 1.71 nM
UO-31 renal
  GI50: 1.07 nM
  TGI: 3.17 nM
MDA-MB-435
  GI50: < 1 nM
  TGI: 1.95 nM
NCI-H23 lung
  GI50: < 1 nM
  TGI: 1.49 nM
RXF 393 renal
  GI50: < 1 nM
  TGI: 1.16 nM
SNB-75 CNS
  GI50: < 1 nM
  TGI: 1.06 nM
OVCAR-5 ovarian
  GI50: 1.16 nM
  TGI: 3.63 nM
UACC-62 melanoma
  GI50: < 1 nM
  TGI: 2.03 nM
EKVX NSCLC
  GI50: 1.11 nM
  TGI: 4.09 nM
SF-539 CNS
  GI50: < 1 nM
  TGI: < 1 nM
MDA-N
  GI50: < 1 nM
  TGI: 1.46 nM
MALME-3M melanoma
  GI50: < 1 nM
  TGI: < 1 nM
LOX IMVI melanoma
  GI50: < 1 nM
  TGI: < 1 nM
786-0 renal
  GI50: 1.08 nM
  TGI: 3.55 nM
PC-3 prostate
  GI50: 1.14 nM
  TGI: 2.59 nM
SK-MEL-5 melanoma
  GI50: < 1 nM
  TGI: < 1 nM
SNB-19 CNS
  GI50: < 1 nM
  TGI: 2.48 nM
HCT-116 colon
  GI50: < 1 nM
  TGI: 1.02 nM
A498 renal
  GI50: < 1 nM
  TGI: 2.72 nM
IGROV1 ovarian
  GI50: < 1 nM
  TGI: 1.88 nM
HT29 colon
  GI50: < 1 nM
  TGI: 1.03 nM
HCC-2998 colon
  GI50: < 1 nM
  TGI: < 1 nM
BT-549 breast
  GI50: < 1 nM
  TGI: 76.6 nM
COLO 205 colon
  GI50: < 1 nM
  TGI: < 1 nM
OVCAR-3 ovarian
  GI50: < 1 nM
  TGI: < 1 nM
UACC-257 melanoma
  GI50: < 1 nM
  TGI: 2.31 nM
SK-MEL-2 melanoma
  GI50: < 1 nM
  TGI: 1.51 nM
SW-620 colon
  GI50: < 1 nM
  TGI: 2.82 nM
NCI-H322M lung
  GI50: 2.35 nM
  TGI: 13.5 nM
A549 NSCLC
  GI50: < 1 nM
  TGI: 2.73 nM
NCI-H460 lung
  GI50: < 1 nM
  TGI: < 1 nM
NCI-H226 lung
  GI50: < 1 nM
  TGI: < 1 nM
NCI-H522 lung
  GI50: < 1 nM
  TGI: < 1 nM
M14 melanoma
  GI50: < 1 nM
  TGI: < 1 nM
HL-60(TB) leukemia
  GI50: < 1 nM
  TGI: < 1 nM
TK-10 renal
  GI50: < 1 nM
  TGI: 2.64 nM
CAKI-1 renal
  GI50: 1.41 nM
  TGI: 6.39 nM
MDA-MB-231 breast
  GI50: 2.17 nM
  TGI: 5.02 nM
SF-268 CNS
  GI50: 1.11 nM
  TGI: 5.13 nM
T-47D breast
  GI50: < 1 nM
  TGI: 1.81 nM
U251 CNS
  GI50: < 1 nM
  TGI: 5.45 nM
KM12 colon
  GI50: < 1 nM
  TGI: 1.88 nM
MCF7 breast
  GI50: < 1 nM
  TGI: 11.1 nM
OVCAR-4 ovarian
  GI50: < 1 nM
  TGI: < 1 nM
HCT-15 colon
  GI50: < 1 nM
  TGI: < 1 nM
SR leukemia
  GI50: < 1 nM
  TGI: < 1 nM
SK-MEL-28 melanoma
  GI50: < 1 nM
  TGI: < 1 nM
SF-295 CNS
  GI50: 1.13 nM
  TGI: 3.66 nM
HS 578T breast
  GI50: < 1 nM
  TGI: 2.19 nM
NCI/ADR-RES ovarian
  GI50: 1.51 nM
  TGI: 20 nM
OVCAR-8 ovarian
  GI50: < 1 nM
  TGI: 1.47 nM
HOP-92 NSCLC
  GI50: < 1 nM
  TGI: 1.51 nM
ACHN renal
  GI50: < 1 nM
  TGI: 4.23 nM
HOP-62 NSCLC
  GI50: < 1 nM
  TGI: 2.61 nM
